Source: patent US11717508B2, “Compounds, compositions, and methods for inhibiting bacterial growth” (priority 2016, dated 2023)
Like-named read-outs stand apart in the source and are kept apart here.

By UniProt entry, the sequences of proteins in these tests, tags left out. Where a name states a change or a piece, a line headed by the entry shows the natural chain unless it says otherwise.
UniProt P9WGK3: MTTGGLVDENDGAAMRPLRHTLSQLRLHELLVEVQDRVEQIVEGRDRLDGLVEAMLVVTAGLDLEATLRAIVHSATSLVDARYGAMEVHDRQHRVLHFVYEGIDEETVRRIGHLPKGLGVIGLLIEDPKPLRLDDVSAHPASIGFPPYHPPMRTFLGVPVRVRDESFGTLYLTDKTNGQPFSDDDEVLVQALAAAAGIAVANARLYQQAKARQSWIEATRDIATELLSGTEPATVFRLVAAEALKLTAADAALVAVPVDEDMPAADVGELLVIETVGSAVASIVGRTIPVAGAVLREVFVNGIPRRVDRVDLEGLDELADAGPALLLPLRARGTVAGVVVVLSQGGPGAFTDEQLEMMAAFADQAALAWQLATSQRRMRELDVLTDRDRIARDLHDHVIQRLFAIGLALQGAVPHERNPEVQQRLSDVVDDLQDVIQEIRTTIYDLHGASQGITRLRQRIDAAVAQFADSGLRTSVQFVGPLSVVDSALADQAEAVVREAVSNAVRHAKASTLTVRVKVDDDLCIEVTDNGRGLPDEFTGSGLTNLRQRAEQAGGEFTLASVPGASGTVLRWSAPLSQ

What was measured:
[1] = system: DosRST regulon; assay type: cell-based
[2] = biological target: DosS (Mycobacterium tuberculosis, UniProt P9WGK3); assay type: biochemical; conditions: DTN-reduced DosS

C[C@@H]1CC[C@H]2[C@@H](C)C(=O)O[C@@H]3O[C@]4(C)CC[C@@H]1[C@]32OO4 [HC101A, artemisinin, reference compound]
WT DMSO/WT HC101A Fold change ([1]; gene MT1454 (Rv1439c)): 0.4582
WT DMSO/WT HC101A Fold change ([1]; gene MT1585.1): 0.1658
WT DMSO/WT HC101A Fold change ([1]; gene MT1586 (Rv1535)): 0.3298
WT DMSO/WT HC101A Fold change ([1]; gene MT1600 (Rv1550 fadD11)): 0.42
WT DMSO/WT HC101A Fold change ([1]; gene MT1627): 0.4181
WT DMSO/WT HC101A Fold change ([1]; gene MT1638 (Rv1602 hisH)): 0.4546
WT DMSO/WT HC101A Fold change ([1]; gene MT1692 (Rv1654 argB)): 0.4031
WT DMSO/WT HC101A Fold change ([1]; gene MT1693 (Rv1655 argD)): 0.4373
WT DMSO/WT HC101A Fold change ([1]; gene MT1694 (Rv1656 argF)): 0.2782
WT DMSO/WT HC101A Fold change ([1]; gene MT1725 (Rv1685c)): 0.3787
WT DMSO/WT HC101A Fold change ([1]; gene MT1726 (Rv1686c)): 0.3243
WT DMSO/WT HC101A Fold change ([1]; gene MT1727 (Rv1687c)): 0.3344
WT DMSO/WT HC101A Fold change ([1]; gene MT1736): 0.4999
WT DMSO/WT HC101A Fold change ([1]; gene MT1774 (Rv1733c)): 0.04455
WT DMSO/WT HC101A Fold change ([1]; gene MT1775): 0.07083
WT DMSO/WT HC101A Fold change ([1]; gene MT1776 (Rv1735c)): 0.1794
WT DMSO/WT HC101A Fold change ([1]; gene MT1777): 0.0375
WT DMSO/WT HC101A Fold change ([1]; gene MT1778 (Rv1736c narX)): 0.02944
WT DMSO/WT HC101A Fold change ([1]; gene MT1779 (Rv1737c narK2)): 0.04042
WT DMSO/WT HC101A Fold change ([1]; gene MT1780 (Rv1738)): 0.04375
WT DMSO/WT HC101A Fold change ([1]; gene MT1797): 0.2522
WT DMSO/WT HC101A Fold change ([1]; gene MT1809 (Rv1760)): 0.466
WT DMSO/WT HC101A Fold change ([1]; gene MT1822): 0.4638
WT DMSO/WT HC101A Fold change ([1]; gene MT1823 (Rv1773c)): 0.2892
WT DMSO/WT HC101A Fold change ([1]; gene MT1840 (Rv1791 PE)): 0.4607
WT DMSO/WT HC101A Fold change ([1]; gene MT1850 (Rv1812c)): 0.4435
WT DMSO/WT HC101A Fold change ([1]; gene MT1851 (Rv1813c)): 0.05112
WT DMSO/WT HC101A Fold change ([1]; gene MT1882 (Rv1834)): 0.3391
WT DMSO/WT HC101A Fold change ([1]; gene MT1932): 0.4407
WT DMSO/WT HC101A Fold change ([1]; gene MT1942): 0.4836
WT DMSO/WT HC101A Fold change ([1]; gene MT1943): 0.4838
WT DMSO/WT HC101A Fold change ([1]; gene MT1955 (Rv1904)): 0.4978
WT DMSO/WT HC101A Fold change ([1]; gene MT1959 (Rv1918c PPE)): 0.4596
WT DMSO/WT HC101A Fold change ([1]; gene MT1986 (Rv1936)): 0.193
WT DMSO/WT HC101A Fold change ([1]; gene MT1987 (Rv1937)): 0.2038
WT DMSO/WT HC101A Fold change ([1]; gene MT1988 (Rv1938 cphB)): 0.197
WT DMSO/WT HC101A Fold change ([1]; gene MT1989 (Rv1939)): 0.2423
WT DMSO/WT HC101A Fold change ([1]; gene MT2007): 0.4225
WT DMSO/WT HC101A Fold change ([1]; gene MT2016 (Rv1964)): 0.2966
WT DMSO/WT HC101A Fold change ([1]; gene MT2017): 0.1715
WT DMSO/WT HC101A Fold change ([1]; gene MT2018 (Rv1966 mce3)): 0.1698
WT DMSO/WT HC101A Fold change ([1]; gene MT2019 (Rv1967)): 0.1773
WT DMSO/WT HC101A Fold change ([1]; gene MT2020 (Rv1968)): 0.1625
WT DMSO/WT HC101A Fold change ([1]; gene MT2021 (Rv1969)): 0.2873
WT DMSO/WT HC101A Fold change ([1]; gene MT2022 (Rv1970 lprM)): 0.1966
WT DMSO/WT HC101A Fold change ([1]; gene MT2023 (Rv1971)): 0.204
WT DMSO/WT HC101A Fold change ([1]; gene MT2024 (Rv1972)): 0.4588
WT DMSO/WT HC101A Fold change ([1]; gene MT2042.1): 0.3482
WT DMSO/WT HC101A Fold change ([1]; gene MT2050 (Rv2004c)): 0.08238
WT DMSO/WT HC101A Fold change ([1]; gene MT2051 (Rv2005c)): 0.06892
WT DMSO/WT HC101A Fold change ([1]; gene MT2052 (Rv1996)): 0.007357
WT DMSO/WT HC101A Fold change ([1]; gene MT2052 (Rv2006 otsB)): 0.1795
WT DMSO/WT HC101A Fold change ([1]; gene MT2053 (Rv1997 ctpF)): 0.03277
WT DMSO/WT HC101A Fold change ([1]; gene MT2053 (Rv2007c fdxA)): 0.1127
WT DMSO/WT HC101A Fold change ([1]; gene MT2059 (Rv2003c)): 0.1512
WT DMSO/WT HC101A Fold change ([1]; gene MT2079 (Rv2023c)): 0.3535
WT DMSO/WT HC101A Fold change ([1]; gene MT2080): 0.3483
WT DMSO/WT HC101A Fold change ([1]; gene MT2086 (Rv2027c)): 0.2146
WT DMSO/WT HC101A Fold change ([1]; gene MT2087 (Rv2028c)): 0.08521
WT DMSO/WT HC101A Fold change ([1]; gene MT2088): 0.03414
WT DMSO/WT HC101A Fold change ([1]; gene MT2089 (Rv2030c)): 0.05595
WT DMSO/WT HC101A Fold change ([1]; gene MT2090): 0.0263
WT DMSO/WT HC101A Fold change ([1]; gene MT2091 (Rv2032)): 0.03365
WT DMSO/WT HC101A Fold change ([1]; gene MT2156 (Rv2107 PE)): 0.3322
WT DMSO/WT HC101A Fold change ([1]; gene MT2278 (Rv2220 glnAl)): 0.3597
WT DMSO/WT HC101A Fold change ([1]; gene MT2304 (Rv2244 acpM)): 0.2232
WT DMSO/WT HC101A Fold change ([1]; gene MT2305 (Rv2245 kasA)): 0.8019
WT DMSO/WT HC101A Fold change ([1]; gene MT2306): 0.3393
WT DMSO/WT HC101A Fold change ([1]; gene MT2307 (Rv2247 accD6)): 0.4599
WT DMSO/WT HC101A Fold change ([1]; gene MT2329 (Rv2267c)): 0.4251
concentration at which artemisinin modulates DosS heme (shift of the reduced Soret peak) [2]: 400 µM
